The Ki is a dissociation constant, usually derived from enzyme kinetics or from competition with a known ligand. Higher therefore signals lower affinity.

By UniProt entry, the sequences of proteins in these tests, tags left out. Chains listed by the source or under a name are the forms on record and can include a tag or linker.
UniProt P08485, as listed by the source: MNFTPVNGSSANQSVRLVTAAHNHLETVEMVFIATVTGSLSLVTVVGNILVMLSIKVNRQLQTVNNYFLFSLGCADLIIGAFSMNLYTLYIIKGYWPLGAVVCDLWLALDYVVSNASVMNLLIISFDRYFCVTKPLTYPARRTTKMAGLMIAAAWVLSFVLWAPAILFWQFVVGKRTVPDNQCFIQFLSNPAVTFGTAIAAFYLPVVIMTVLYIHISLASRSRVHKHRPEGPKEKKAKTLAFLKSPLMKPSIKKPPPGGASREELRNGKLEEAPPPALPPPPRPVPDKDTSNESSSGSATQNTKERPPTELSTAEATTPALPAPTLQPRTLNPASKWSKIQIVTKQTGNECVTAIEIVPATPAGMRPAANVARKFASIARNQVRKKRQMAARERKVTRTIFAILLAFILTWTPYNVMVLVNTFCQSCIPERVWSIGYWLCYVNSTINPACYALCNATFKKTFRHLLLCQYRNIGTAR

Drawing on BindingDB's records for doi:10.1111/j.1600-0773.1998.tb01469.x (Case Western Reserve University, 1998), this text covers Ki for one compound.

In this assay the target is Muscarinic acetylcholine receptor M4 (Rattus norvegicus, UniProt P08485).

In turn, `CN1C2CC(OC(=O)C(CO)c3ccccc3)CC1C1OC12` (stereo unspecified) [3-hydroxy-2-phenyl-propionic acid 9-methyl-3-oxa-9-aza-tricyclo[3.3.1.0*2,4*]non-7-yl ester] yielded a Ki of 0.14 nM.
